Source: article PMC6882446, “Further validation of strecker-type α-aminonitriles as a new class of potent human carbonic anhydrase II inhibitors: hit expansion within the public domain using differential scanning fluorimetry leads to chemotype refinement” (Journal of Enzyme Inhibition and Medicinal Chemistry, 2019)

Molecular target: hCA II (Homo sapiens, UniProt P00918)
Test: stopped-flow CO2 hydration assay
Format: biochemical
Conditions: CO2 […]; […] Hepes pH […]; […] Na2SO4; room temperature; […] min pre-incubation
Source text: stopped-flow CO2 hydration assay on hCA II

- Ki: 9.1 µM
SMILES: COCCOc1ncccc1C(=O)N1CCN(C(C#N)C(C)C)CC1 (stereo not shown)
